These results are taken from paper PMC11302665.

Experiment [1] addresses L-cysteine desulfurase IscS (E. coli) (UniProt P0A6B7). Kind of experiment: native MS; ~8 µM IscS (~4 µM dimeric IscS) titrated with increasing TusA in 250 mM ammonium acetate, pH 8.0; fractional intensities fitted to a sequential binding model (Dynafit).
Experiment [2] addresses R220/223/225E triple variant of IscS (E. coli) (UniProt P0A6B7). The experiment is described as above.

The substance “TusA (from UniProt P0A890 1-81) (natural protein)” displayed a stoichiometry N (TusA per IscS dimer) in experiment [1] of 2. Besides, in experiment [2], the Kd came out at 50 µM and the stoichiometry N (TusA per IscS dimer) amounted to 2.
